Experimental findings from patent US20260167659A1, “STING AGONISTS” (LIGACHEM BIOSCIENCES INC., priority 2022, published 2026) are described below.

Sequences of proteins named here, by UniProt entry; tags and fusion partners are left off. A change or cut given only in a name is not applied to a line headed by its entry.
UniProt Q86WV6, whole entry H232R: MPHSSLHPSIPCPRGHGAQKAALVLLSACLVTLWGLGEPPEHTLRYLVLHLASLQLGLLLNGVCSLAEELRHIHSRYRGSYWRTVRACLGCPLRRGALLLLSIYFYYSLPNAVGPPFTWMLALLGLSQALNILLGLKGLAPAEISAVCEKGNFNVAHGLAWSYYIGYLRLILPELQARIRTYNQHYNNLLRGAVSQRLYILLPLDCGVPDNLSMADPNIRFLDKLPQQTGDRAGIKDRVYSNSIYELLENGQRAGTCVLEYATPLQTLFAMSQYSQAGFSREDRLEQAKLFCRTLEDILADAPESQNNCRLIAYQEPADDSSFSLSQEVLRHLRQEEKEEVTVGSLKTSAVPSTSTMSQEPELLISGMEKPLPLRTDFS
UniProt Q86WV6, whole entry: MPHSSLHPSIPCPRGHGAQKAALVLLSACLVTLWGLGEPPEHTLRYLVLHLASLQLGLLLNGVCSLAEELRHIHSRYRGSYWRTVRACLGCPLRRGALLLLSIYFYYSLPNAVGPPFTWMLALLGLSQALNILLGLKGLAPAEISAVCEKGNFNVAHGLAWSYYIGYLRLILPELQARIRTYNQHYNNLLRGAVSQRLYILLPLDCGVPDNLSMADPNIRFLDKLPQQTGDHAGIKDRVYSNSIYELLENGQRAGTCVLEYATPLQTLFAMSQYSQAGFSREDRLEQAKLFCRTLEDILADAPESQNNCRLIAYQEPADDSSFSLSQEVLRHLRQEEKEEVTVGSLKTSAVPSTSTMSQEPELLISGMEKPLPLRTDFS
UniProt Q86WV6, whole entry R71H/G230A/H232R/R293Q: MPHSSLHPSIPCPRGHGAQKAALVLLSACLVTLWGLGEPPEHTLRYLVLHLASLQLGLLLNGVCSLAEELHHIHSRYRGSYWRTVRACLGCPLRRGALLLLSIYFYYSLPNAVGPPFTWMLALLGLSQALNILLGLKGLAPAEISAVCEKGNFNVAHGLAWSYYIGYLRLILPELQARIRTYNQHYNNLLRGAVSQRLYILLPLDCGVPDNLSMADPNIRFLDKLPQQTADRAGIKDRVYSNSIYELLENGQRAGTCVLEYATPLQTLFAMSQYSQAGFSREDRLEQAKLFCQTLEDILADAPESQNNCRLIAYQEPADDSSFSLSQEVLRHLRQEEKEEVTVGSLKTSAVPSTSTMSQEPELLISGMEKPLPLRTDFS

One series relates to CT26 cells. Nature of the series: In vivo efficacy, CT26 syngeneic mouse model. The following applies: FIG. 8.
The target in another series is hSTING-WT (R232) (Homo sapiens, UniProt Q86WV6, H232R). In words: STING activation, THP1-Dual IRF3 reporter assay, hSTING-R232 cells. It is filed as cell-based. The following applies: read-out: STING activity using hSTING-R232 cells EC50, IRF3 luciferase reporter, 24 hours. A general note: A reporter such as luciferase makes a cellular process visible.
The target of a further series is hSTING H232 variant (Homo sapiens, UniProt Q86WV6). Nature of the series: STING activation, THP1-Dual IRF3 reporter assay, hSTING-H232 cells. It is filed as cell-based. The conditions noted are these: read-out: STING activity using hSTING-H232 cells, H232 EC50, IRF3 luciferase reporter, 24 hours.
Series [1] in a line: Plasma pharmacokinetics in naive Balb/C mouse, LC-MS/MS. The following applies: 1.5 mg/kg single IV.
Series [2] has as its system human PBMCs (CD8+ T cells and NK cells). In words: CD8+ T and NK cell activation in PBMCs by flow cytometry. The conditions noted are these: 100 nM, 48 hours. In general terms: In flow cytometry, cells or beads pass a laser one at a time.
For a further series, the target named is human STING (Homo sapiens, UniProt Q86WV6, H232R). In words: Direct STING binding, HUMAN STING WT BINDING KIT (Cisbio). The conditions noted are these: read-out: Binding potency EC50; direct binding to human STING WT protein in vitro.
Another series addresses hSTING HAQ variant (Homo sapiens, UniProt Q86WV6, G230A/H232R/R293Q/R71H). In words: STING activation, THP1-Dual IRF3 reporter assay, hSTING-HAQ cells. It is filed as cell-based. The conditions noted are these: read-out: STING activity using hSTING-HAQ cells, HAQ EC50, IRF3 luciferase reporter, 24 hours.
The subject of a further series is PBMCs. In words: Normal cell cytotoxicity in PBMCs, CellTiter-Glo. The conditions noted are these: read-out: In vitro cell cytotoxicity in PBMCs CC50, 72 hours. Background: ATP-based viability assays read luminescence as a measure of living cells.

The EC50 is the concentration that produces a half-maximal response. The term Cmax denotes the peak of the concentration-time curve. In general, CC50 refers to the concentration that lowers cell viability or growth by half.

Consider `CCn1nc(C)cc1C(=O)Nc1nc2cc(C(N)=O)cc(OC)c2n1C/C=C/Cn1c(NC(=O)c2cc(C)nn2CC)nc2cc(C(N)=O)cc(OC/C=C/Cn3cc(NC(=O)OCc4ccc(O[C@@H]5O[C@H](C(=O)O)[C@@H](O)[C@H](O)[C@H]5O)c(C(=O)NCCOCCOCCN(C)C)c4)cn3)c21`, for which the “mice with tumors completely eradicated” value with CT26 cells (0.5 mg/kg intravenously once weekly for 3 weeks) was 2 out of 5. Further, the “mice with tumors completely eradicated” value with CT26 cells (single dose of 1 mg/kg intravenously) is 2 out of 5. At hSTING-WT (R232), the EC50 amounted to 9.95 nM. Also, the EC50 at hSTING H232 variant is 48.3 nM. In addition, in series [1] (n = 3), the “CL” value came out at 0.5 ± 0 mL/min/kg, the “VSS” value was 0.17 ± 0.01 L/kg and the “t1/2” value was 4.26 ± 0.74 h. In series [1] (n = 3, dose-normalised), the “AUC∞, norm” value was determined as 38.1 ± 2.60 kg·h/L and the “Cmax, norm” value is reported as 6.44 ± 0.41 kg/L. Moreover, in series [1] (n = 3, plasma), the “AUClast” value was 56900 ± 4120 ng·h/mL, the “AUC∞” value stood at 57100 ± 3900 ng·h/mL, the “C0” value was 10000 ± 640 ng/mL and the “Cmax” value came to 9650 ± 610 ng/mL. Further, the “F (%)” value in series [1] (value in brackets (IV reference)) is recorded as “(100) %”. Moreover, in series [2] (FIG. 4A), the “CD69 expression on CD8+ T cells” value is on record as “enhanced CD69 expression”. In series [2] (FIG. 4B), the “CD69 expression on NK cells” value is “enhanced CD69 expression”. At human STING, the EC50 stood at 0.19 nM. At hSTING HAQ variant, the EC50 is 14.8 nM. Moreover, the CC50 in the series on PBMCs was determined as 16 nM.

On to `CCn1nc(C)cc1C(=O)Nc1nc2cc(C(N)=O)cc(OC)c2n1C/C=C/Cn1c(NC(=O)c2cc(C)nn2CC)nc2cc(C(N)=O)cc(OCCc3ccc(NC(=O)OCc4ccc(O[C@@H]5O[C@H](C(=O)O)[C@@H](O)[C@H](O)[C@H]5O)c(C(=O)NCCOCCOCCO)c4)cc3)c21`, for which the EC50 at hSTING-WT (R232) was determined as 16.7 nM; at human STING, 0.39 nM.
